Measurements taken from PubChem BioAssay AID1345561 (Gulick Lab, Department of Structural Biology, University at …, 2018).
The list shows a part of the results, in another mix than the full data. Activity calls are given as the source filed them. No rule for the calls is given here.

test system: Aerobactin synthetase IucA (Klebsiella pneumoniae); experiment: IucA aerobactin synthetase inhibitors, biochemical, Tocris library, absorbance (AID 1345561); conditions: purified IucA enzyme assay, absorbance (OD) read-out; stronger effect = lower value;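 tested at 8 µM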;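 also: 100% = enzyme without compound and 0% = no enzyme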

| Compound | remaining activity |
| --- | --- |
| CN(C(=O)Cc1ccc(Cl)c(Cl)c1)[C@H]1CCCC[C@@H]1N1CCCC1 | inactive: 101% |
| CN(C(=O)Cc1ccc(Cl)c(Cl)c1)[C@@H]1CCCC[C@H]1N1CCCC1 | inactive: 97.1% |
